## Antibody variant affinities, Ab-14 light chain, assay B

Data: MIT Lincoln Laboratory AlphaSeq set, Li et al. 2023, doi:10.1038/s41467-023-39022-2, as distributed in FLAb.

Binding partner: SARS-CoV-2 spike HR2 peptide, sequence PDVDLGDISGINAS.

The variants keep the heavy chain, the linker and the frameworks of Ab-14 (scFv order VH, a 15-residue (Gly4Ser)3 linker, VL).
VH: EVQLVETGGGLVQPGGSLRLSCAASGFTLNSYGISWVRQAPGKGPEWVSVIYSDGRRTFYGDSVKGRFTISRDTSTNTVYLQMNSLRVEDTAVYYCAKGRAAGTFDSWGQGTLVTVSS
VL: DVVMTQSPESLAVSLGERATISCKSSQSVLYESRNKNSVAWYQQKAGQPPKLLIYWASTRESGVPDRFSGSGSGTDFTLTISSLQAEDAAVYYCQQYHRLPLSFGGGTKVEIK

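Phage display of a naive human antibody library on the peptide gave the parent. This is the validation round: designs drawn from the data on random variants, tested in the same kind of assay. Their group label is 14L_En_Gen (En: ensemble of fine-tuned language models; Gen: genetic algorithm). The assay is AlphaSeq: two haploid yeast populations carry antibody and antigen on their surface. After mating in shaken culture at 30 °C for 16 h, diploids were selected and their barcode pairs sequenced. Scores were corrected for input abundance and mapped to Kd with protein pairs of known affinity run in the same pool. There are six technical replicates.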

Sequences are complete VL domains.
Numbers give log10(Kd / nM), so 0 is 1 nM and 3 is 1 µM. Smaller is tighter.
A pair that was not seen in that replicate is written "nd"; this usually means weak binding, but a binder can also be missed.
In the paper, a design with two or fewer of six values counts as a poor binder.
A sequence measured in both rounds can read differently, since the two assays cover different ranges.
Three control strains display no target. For all light chain designs, 4% of the pairings with them gave a signal, with a median of 2.64 and one signal in twenty below 1.59, so weak values seen in few replicates may be background. The control count says in how many pairings with the empty strains this scFv gave a signal, with their mean in brackets.
The parent sequence was in this pool as ten entries: three were never detected, three once, and four in most replicates, with averages from 0.34 to 2.37.

VL | replicates, log10 nM | empty controls
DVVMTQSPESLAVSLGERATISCMVSQLMLWGLHAKNSIAWYQQKAGQPPKLLIYEAETRGNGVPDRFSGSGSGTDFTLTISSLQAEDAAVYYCQQYDRLPLIFGGGTKVEIK | nd / nd / 1.97 / 1.88 / 1.61 / nd | 0/18
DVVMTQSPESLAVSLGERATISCMLYGLSVSMSKNTNNVAWYQQKAGQPPKLLIYEMTTREDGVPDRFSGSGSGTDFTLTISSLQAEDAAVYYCQQYDRLPLIFGGGTKVEIK | nd / 0.76 / 1.49 / nd / nd / 1.29 | 0/18
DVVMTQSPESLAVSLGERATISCKFSQMANTFSVSMNAVAWYQQKAGQPPKLLIYEMSTREDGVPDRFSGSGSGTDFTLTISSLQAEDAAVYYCQQYNRLPLAFGGGTKVEIK | 0.57 / 0.34 / 0.32 / 0.56 / -0.04 / 0.44 | 0/18
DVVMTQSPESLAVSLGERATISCIVSQLMLWGMHVKNSIAWYQQKAGQPPKLLIYEAETRINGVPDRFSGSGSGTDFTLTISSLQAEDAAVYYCQQYDRLPLFFGGGTKVEIK | 1.69 / 1.68 / nd / 1.86 / 1.61 / 1.89 | 0/18
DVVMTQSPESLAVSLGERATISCIVSQLMLWGIHAKNSIAWYQQKAGQPPKLLIYEAQMRLNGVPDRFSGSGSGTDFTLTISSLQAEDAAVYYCQQYDRLPLFFGGGTKVEIK | nd / nd / 1.11 / nd / nd / nd | 0/18
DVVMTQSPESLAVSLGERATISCTLYGLTNSMSKNKNSVAWYQQKAGQPPKLLIYEMTTREKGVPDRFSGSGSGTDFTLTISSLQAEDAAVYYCQQYDRLPLMFGGGTKVEIK | 0.60 / 0.72 / 0.66 / 0.47 / 0.38 / 0.96 | 2/18 (2.69)
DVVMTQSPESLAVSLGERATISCMISNVMNTLTRQGNNVAWYQQKAGQPPKLLIYDLAEREDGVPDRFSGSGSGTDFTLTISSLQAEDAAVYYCQQYFRLPLSFGGGTKVEIK | 0.69 / 0.46 / 0.46 / 0.37 / 0.43 / 0.55 | 0/18
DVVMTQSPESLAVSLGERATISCKLYEMVASTMMNIRNVAWYQQKAGQPPKLLIYDNSTREAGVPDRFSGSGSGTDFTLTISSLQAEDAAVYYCQQYHRLPLSFGGGTKVEIK | nd / 0.54 / 1.37 / 1.21 / 1.09 / 0.62 | 1/18 (1.76)
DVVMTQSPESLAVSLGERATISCMISQIYNVGQFAINSVAWYQQKAGQPPKLLIYQASTRNAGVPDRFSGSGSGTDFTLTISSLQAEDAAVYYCQQYDRLPLMFGGGTKVEIK | 1.40 / 1.44 / 1.69 / 1.01 / 1.41 / 1.14 | 0/18
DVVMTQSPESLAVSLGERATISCMISQLYNMGQFAINSVAWYQQKAGQPPKLLIYQAEERYNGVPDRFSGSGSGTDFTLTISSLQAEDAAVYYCQQYDRLPLIFGGGTKVEIK | nd / 2.44 / 1.19 / 1.69 / 1.82 / 3.14 | 1/18 (2.37)
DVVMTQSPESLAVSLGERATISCTIGSTLMYGMANRSNVAWYQQKAGQPPKLLIYEVSERLNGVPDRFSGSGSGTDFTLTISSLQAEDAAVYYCQQYDRLPLLFGGGTKVEIK | 2.83 / 1.76 / 2.53 / 1.49 / 1.69 / 3.26 | 3/18 (3.08)
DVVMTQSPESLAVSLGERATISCQISMLLNFESYKIENVAWYQQKAGQPPKLLIYQMSTRVNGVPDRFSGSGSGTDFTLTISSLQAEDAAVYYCQQYDRLPLSFGGGTKVEIK | 0.35 / nd / 0.36 / 1.29 / 0.96 / 0.34 | 0/18
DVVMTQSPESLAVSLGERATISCKFSQMVNTLSVSKSAVAWYQQKAGQPPKLLIYEMSTRPEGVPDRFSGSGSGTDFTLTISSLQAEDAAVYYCQQYNRLPLAFGGGTKVEIK | 2.14 / 2.48 / 1.26 / 3.30 / 1.51 / 2.14 | 1/18 (3.63)
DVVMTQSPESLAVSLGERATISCMVSQLMLWGLHAKNSIAWYQQKAGQPPKLLIYEAVTRYNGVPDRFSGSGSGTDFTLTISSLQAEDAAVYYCQQYDRLPLFFGGGTKVEIK | 1.35 / 2.17 / 1.92 / 2.80 / 2.45 / 1.93 | 1/18 (1.85)
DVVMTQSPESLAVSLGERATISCMVSMNIYGEYRNRDNVAWYQQKAGQPPKLLIYHASMREKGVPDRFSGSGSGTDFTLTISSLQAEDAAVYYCQCYDRLPLSFGGGTKVEIK | 0.74 / 0.82 / 0.40 / 0.40 / 0.32 / 0.73 | 2/18 (2.31)
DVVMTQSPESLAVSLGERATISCHITYGMQVAGRHHSSIAWYQQKAGQPPKLLIYQAEERAKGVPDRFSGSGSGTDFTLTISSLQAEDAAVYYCQQYDRLPLSFGGGTKVEIK | 0.67 / 0.30 / 1.04 / 0.27 / 0.96 / 0.39 | 0/18
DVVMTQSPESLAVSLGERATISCMISQLYNMGTFAINSVAWYQQKAGQPPKLLIYQASIRNSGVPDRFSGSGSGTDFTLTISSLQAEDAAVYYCQQYDRLPLLFGGGTKVEIK | 1.37 / 1.25 / 1.89 / 1.45 / 1.45 / 1.69 | 3/18 (2.72)
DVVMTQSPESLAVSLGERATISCIVTQLMLWGWHAKNSIAWYQQKAGQPPKLLIYEAQTRVNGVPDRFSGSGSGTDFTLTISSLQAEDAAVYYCQQYDRLPLFFGGGTKVEIK | nd / nd / nd / nd / nd / nd | 0/18
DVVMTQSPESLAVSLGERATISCIVSQLMLWGLHAKNSIAWYQQKAGQPPKLLIYEAQTRVNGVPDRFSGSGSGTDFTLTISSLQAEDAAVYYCQQYDRLPLIFGGGTKVEIK | 1.50 / nd / nd / nd / nd / nd | 0/18

Picked from the list: the 3 lowest averages where every replicate gave a value.

VL,"replicates, log10 nM",empty controls
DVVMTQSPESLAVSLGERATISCKFSQMANTFSVSMNAVAWYQQKAGQPPKLLIYEMSTREDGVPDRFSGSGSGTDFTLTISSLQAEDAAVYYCQQYNRLPLAFGGGTKVEIK,0.57 / 0.34 / 0.32 / 0.56 / -0.04 / 0.44,0/18
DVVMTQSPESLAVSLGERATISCMISNVMNTLTRQGNNVAWYQQKAGQPPKLLIYDLAEREDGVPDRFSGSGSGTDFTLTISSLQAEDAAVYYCQQYFRLPLSFGGGTKVEIK,0.69 / 0.46 / 0.46 / 0.37 / 0.43 / 0.55,0/18
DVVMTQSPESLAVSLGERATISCMVSMNIYGEYRNRDNVAWYQQKAGQPPKLLIYHASMREKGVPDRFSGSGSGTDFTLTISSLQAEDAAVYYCQCYDRLPLSFGGGTKVEIK,0.74 / 0.82 / 0.40 / 0.40 / 0.32 / 0.73,2/18 (2.31)